Laboratory results taken from US8846699B2, “Quinazoline derivatives as a multiplex inhibitor and method for the preparation thereof” (Hanmi Pharm. Co., Ltd., priority 2005, dated 2014).

Sequences of proteins named here, by UniProt entry; tags and fusion partners are left off. Residues count along the entry.
UniProt P35968, 20-1356: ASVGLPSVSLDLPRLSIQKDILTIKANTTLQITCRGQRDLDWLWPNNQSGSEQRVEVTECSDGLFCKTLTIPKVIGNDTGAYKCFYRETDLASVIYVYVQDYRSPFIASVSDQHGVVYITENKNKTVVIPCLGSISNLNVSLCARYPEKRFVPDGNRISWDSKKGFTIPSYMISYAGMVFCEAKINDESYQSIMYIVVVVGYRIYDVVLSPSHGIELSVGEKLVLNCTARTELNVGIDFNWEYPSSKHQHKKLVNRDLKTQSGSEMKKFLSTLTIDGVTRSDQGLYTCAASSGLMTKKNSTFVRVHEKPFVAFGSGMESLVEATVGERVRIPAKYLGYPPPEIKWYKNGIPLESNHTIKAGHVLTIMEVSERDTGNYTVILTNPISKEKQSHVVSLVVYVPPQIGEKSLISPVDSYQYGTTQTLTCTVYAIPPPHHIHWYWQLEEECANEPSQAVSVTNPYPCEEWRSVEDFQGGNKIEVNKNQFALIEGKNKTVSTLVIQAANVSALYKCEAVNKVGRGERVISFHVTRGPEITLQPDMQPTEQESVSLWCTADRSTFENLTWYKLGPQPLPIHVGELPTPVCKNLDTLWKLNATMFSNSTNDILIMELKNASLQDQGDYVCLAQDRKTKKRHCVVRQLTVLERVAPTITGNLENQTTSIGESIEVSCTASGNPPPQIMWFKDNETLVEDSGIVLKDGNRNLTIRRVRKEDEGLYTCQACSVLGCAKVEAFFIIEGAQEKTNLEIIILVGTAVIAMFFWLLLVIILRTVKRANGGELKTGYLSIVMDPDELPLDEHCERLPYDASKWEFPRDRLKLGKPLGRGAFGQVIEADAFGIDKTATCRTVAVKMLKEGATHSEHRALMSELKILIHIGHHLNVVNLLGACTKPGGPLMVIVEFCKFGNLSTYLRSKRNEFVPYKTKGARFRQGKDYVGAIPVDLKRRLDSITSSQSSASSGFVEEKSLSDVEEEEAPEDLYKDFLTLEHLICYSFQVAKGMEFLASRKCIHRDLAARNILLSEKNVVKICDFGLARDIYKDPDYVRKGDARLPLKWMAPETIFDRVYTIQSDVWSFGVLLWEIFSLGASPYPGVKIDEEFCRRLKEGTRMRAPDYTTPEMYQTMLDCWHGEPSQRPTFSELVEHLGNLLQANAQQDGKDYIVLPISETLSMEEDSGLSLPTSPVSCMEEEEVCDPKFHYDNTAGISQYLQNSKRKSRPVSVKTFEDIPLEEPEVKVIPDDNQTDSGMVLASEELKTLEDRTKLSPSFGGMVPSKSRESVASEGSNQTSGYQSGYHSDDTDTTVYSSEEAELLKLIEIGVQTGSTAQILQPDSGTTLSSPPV

Assays:
[1] = test system: Human Umbilical Vein Endothelial Cell (HUVEC); assay: Inhibitory effect on growth of human umbilical vein endothelial cell (HUVEC), MTS; assay type: cell-based; conditions: 10 ng/ml VEGF, absorbance 490 nm
VEGFR2 (KDR) = VEGFR2 (KDR) (Homo sapiens (Human), UniProt P35968); assay: VEGFR2 (KDR) enzyme assay, fluorescence polarization; assay type: biochemical; conditions: 5 μM ATP, poly(Glu, Tyr) substrate

| IC50 (VEGFR2 (KDR)) | Compound | IC50 ([1]; Homo sapiens, 96 h) | IC50 ([1]; 96 hours) |
| --- | --- | --- | --- |
| 965 nM | C=CC(=O)Nc1cc2c(Nc3ccc(Br)cc3F)ncnc2cc1OCCNC(=O)C1CCCN1C (stereo not shown) [Example 98, 1-methyl-pyrrolidine-2-carboxylic acid {2-[6-acryloylamino-4-(4-bromo-2-fluoro-phenylamino)-quinazolin-7-yloxy]-ethyl}-amide] | 966 nM | – |
| 995 nM | C=CC(=O)Nc1cc2c(Nc3ccc(Br)cc3F)ncnc2cc1OCCNC(=O)C1CCCN1C (stereo not shown) [Example 100, 1-methyl-pyrrolidine-2-carboxylic acid {2-[6-acryloylamino-4-(4-bromo-2-fluoro-phenylamino)-quinazolin-7-yloxy]-ethyl}-amide] | – | 897 nM |
